This is an account of results in US9605007B2, “2-amino-6-methyl-4,4a,5,6-tetrahydropyrano[3,4-d][1,3]thiazin-8a(8H)-yl-1,3-thiazol-4-yl amides” (Pfizer Inc., priority 2014, dated 2017).

In general, pKa refers to the pH at which an ionisable group is half protonated.

Data set [1] is described as follows: GSH Incubation Assay.
Data set [2] in a line: pKa measurement. The format is physicochemical. The following applies: Measurement determined at Analyza.

For `N#Cc1ccc(C(=O)Nc2csc([C@]34COCC[C@H]3CSC(N)=N4)c2)nc1`, in data set [1] (glutathione (50 mM) at 37° C. in buffer for 4 hours), the “Observed GSH adducts” value was “Positive”. In data set [1] (human liver microsomes in the presence of GSH), the “formation of chemical adducts” value is given as “formation of chemical adducts”.

`C[C@H]1C[C@H]2CSC(N)=N[C@@]2(c2cc(NC(=O)c3ccc(OC(F)F)cn3)ccc2F)CO1` came in with a pKa in data set [2] of 8.3.
